Values of other authors, collected in patent publication US9182414B2, “Methods for identifying a GLP-1 secretagogue” (Arena Pharmaceuticals, Inc., priority 2005, dated 2015).

Target: T1, BRS-3 (Homo sapiens, UniProt P32247)
T1 sequence (P32247 1-399): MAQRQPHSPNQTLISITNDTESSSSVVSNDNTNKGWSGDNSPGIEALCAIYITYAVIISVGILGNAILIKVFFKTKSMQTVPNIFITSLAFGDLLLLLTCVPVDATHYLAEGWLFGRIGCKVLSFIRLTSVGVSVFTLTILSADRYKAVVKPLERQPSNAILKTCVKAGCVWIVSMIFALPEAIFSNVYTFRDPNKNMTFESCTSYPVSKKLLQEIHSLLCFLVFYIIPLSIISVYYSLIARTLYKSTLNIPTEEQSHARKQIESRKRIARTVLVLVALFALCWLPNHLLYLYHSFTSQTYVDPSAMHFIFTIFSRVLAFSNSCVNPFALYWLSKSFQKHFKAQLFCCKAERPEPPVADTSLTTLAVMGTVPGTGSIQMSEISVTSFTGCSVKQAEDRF
Details: BRS-3 over GRP-R and NMB-R; description taken from literature

Selectivity as BRS-3 agonist, selective BRS-3 agonists:
[D-Tyr^6,(R)-Apa^11-4Cl,Phe^13,Nle^14]Bombesin(6-14) [Compound 30]
[D-Tyr^6,(R)-Apa^11,Phe^13,Nle^14]Bombesin(6-14) [Compound 28]
[D-Tyr^6,(S)-Apa^11,Phe^13,Nle^14]Bombesin(6-14) [Compound 29]
